These results are taken from patent US20150218538A1 (UNIVERSITY OF NORTH CAROLINA AT CHAPEL HILL, published 2015).

Chains of the proteins cited; added tags and fusions are not shown. Lines headed by an entry give the natural chain unless they say otherwise; changes in a name come on top.
UniProt Q01970: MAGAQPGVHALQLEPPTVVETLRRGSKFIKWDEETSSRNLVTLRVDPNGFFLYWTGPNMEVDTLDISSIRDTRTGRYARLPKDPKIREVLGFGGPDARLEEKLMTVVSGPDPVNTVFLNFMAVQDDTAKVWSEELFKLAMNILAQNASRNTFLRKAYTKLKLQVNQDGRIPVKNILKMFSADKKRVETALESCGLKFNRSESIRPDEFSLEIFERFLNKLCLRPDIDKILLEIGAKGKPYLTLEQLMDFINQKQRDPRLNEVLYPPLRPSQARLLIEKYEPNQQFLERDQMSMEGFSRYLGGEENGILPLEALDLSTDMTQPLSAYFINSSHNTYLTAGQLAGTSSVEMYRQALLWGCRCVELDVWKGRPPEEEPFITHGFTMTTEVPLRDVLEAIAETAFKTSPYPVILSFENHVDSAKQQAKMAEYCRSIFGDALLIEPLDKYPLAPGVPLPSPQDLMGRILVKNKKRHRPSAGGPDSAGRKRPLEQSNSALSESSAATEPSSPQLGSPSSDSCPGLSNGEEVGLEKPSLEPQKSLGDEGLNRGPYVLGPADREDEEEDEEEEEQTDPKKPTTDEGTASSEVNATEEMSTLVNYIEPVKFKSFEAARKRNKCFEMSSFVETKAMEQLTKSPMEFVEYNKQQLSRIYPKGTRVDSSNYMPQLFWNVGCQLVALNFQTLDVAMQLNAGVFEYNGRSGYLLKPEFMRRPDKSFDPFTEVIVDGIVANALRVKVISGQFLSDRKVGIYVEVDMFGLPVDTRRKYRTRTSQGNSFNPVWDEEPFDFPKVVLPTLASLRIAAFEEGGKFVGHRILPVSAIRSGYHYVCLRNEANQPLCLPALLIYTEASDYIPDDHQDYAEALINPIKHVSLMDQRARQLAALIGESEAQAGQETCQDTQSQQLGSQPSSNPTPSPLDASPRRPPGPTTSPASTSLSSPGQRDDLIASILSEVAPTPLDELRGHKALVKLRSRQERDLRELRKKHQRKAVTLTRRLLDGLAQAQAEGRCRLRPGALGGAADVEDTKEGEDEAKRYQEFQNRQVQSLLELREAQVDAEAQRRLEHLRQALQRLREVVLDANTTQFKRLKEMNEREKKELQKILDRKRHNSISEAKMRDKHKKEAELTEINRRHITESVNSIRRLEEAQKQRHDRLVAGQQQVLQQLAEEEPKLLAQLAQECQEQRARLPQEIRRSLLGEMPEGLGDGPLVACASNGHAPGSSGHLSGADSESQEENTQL

By Kd is commonly meant the free concentration of one partner at which half of the binding sites on the other are occupied at equilibrium, for simple one-to-one binding.

Assay [1] deals with T1, Gαq activated with aluminum fluoride (Gαq-GDP plus aluminum fluoride) (UniProt P50148 35-359).
T1 sequence (looked up): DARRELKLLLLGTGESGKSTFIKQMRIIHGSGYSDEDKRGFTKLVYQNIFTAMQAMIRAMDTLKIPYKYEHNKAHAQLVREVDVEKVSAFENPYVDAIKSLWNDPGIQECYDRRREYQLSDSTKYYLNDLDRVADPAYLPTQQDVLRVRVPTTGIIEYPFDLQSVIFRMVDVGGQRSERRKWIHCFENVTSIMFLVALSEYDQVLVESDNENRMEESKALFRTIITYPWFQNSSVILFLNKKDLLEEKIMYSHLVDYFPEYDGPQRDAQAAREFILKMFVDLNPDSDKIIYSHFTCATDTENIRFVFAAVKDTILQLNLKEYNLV
The assay can be described thus: cell-based or functional assay.

In assay [2] the target is chimeric form of Gαq (Gαq/i), activated with aluminum fluoride. The assay can be described thus: fluorescence polarization; Gαq/i with aluminum fluoride.
Assay [3] addresses T1, Gαq activated with aluminum fluoride …. The assay can be described thus: fluorescence polarization; Gαq activated with aluminum fluoride. A general note: Fluorescence polarisation rises when a labelled molecule tumbles more slowly, as on binding a larger partner.

B1: TAMRA-27-mer (TAMRA-labeled 27-mer, residues 852-878 of PLC-β3 with two mutations Ile860A+M869Nle) (peptide, UniProt Q01970 852-878, looked up)
peptide: HQDYAEALANPIKHVSLMDQRARQLAA
modifications: norleucine (Nle) in place of Met 869 (M869Nle); labeled with TAMRA (5-carboxytetramethylrhodamine), position of the label not stated
notes: range 852-878
Take B1: the “phospholipase activity of PLC-β3 activated by Gαq in lipid vesicles, as a function of TAMRA-27-mer concentration (IC50)” value in assay [1] was approximately 1000 nM. Besides, the Kd in assay [2] is 1600 nM; in assay [3] it was approximately 400 nM.
